Laboratory results taken from PubChem BioAssay AID504937 (National Center for Advancing Translational Sciences (NCATS), 2011).
This is a selection; strong and weak results do not stand in their true shares. Calls of active or inactive are those of the source. Calls follow the shape of the dose curve; as a rule, active = well fitted inhibition curve with a large enough effect; inconclusive = small, poorly fitted or top-dose-only effect; inactive = no such curve, though single readings can be large or run the other way.

Sequences of proteins named here, by UniProt entry; tags and fusion partners are left off. A change or cut given only in a name is not applied to a line headed by its entry.
UniProt P17405: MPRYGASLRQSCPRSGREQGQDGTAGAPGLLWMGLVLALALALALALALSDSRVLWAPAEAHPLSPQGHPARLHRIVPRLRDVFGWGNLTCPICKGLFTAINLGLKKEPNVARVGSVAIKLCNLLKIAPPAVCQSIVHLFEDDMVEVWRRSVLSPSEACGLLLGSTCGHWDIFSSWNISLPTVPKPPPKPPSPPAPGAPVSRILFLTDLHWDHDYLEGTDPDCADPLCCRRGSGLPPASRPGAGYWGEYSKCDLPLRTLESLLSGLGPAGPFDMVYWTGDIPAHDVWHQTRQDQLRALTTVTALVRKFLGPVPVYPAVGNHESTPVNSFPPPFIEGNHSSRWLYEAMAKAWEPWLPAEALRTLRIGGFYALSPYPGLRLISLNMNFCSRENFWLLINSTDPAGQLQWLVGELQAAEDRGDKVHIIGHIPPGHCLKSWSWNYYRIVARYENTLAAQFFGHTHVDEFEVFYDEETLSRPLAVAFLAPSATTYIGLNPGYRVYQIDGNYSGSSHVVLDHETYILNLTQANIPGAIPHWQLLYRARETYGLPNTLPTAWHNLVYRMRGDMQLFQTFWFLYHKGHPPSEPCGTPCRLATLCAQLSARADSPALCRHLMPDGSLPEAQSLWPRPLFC

These compounds were tested against Sphingomyelin phosphodiesterase (Homo sapiens) (UniProt P17405) (assay: Inhibitors of Secretory Acid Sphingomyelinase (S-ASM): qHTS). Conditions: placental ASM, HMU-PC fluorogenic substrate (series up to 57.5 µM), 60 min; at 57.5 µM (top of the series).

| SMILES | activity change, negative = inhibition |
| --- | --- |
| CS(=O)(=O)c1cc([N+](=O)[O-])c2no[n+]([O-])c2c1 | inactive: -1.87% |
| O=P(Nc1nccs1)(Oc1ccccc1)Oc1ccccc1 | inactive: -2.19% |
| O=P(Nc1nccs1)(c1ccccc1)c1nc2ccccc2s1 (stereo unspecified) | inactive: -9.02% |
| CCOP1(=S)c2c(C)nn(CCC#N)c2N=C(c2ccccc2F)N1C (stereo unspecified) | inactive: 6.84% |
| O=C(O)COc1ccc([As](=O)(O)O)cc1[N+](=O)[O-] | inactive: -2.1% |
| Nc1ccccc1[As](=O)(O)c1ccccc1 | inactive: 1.22% |
| NC(=O)Nc1ccc([As](=O)(O)O)cc1 | inactive: -4.6% |
| CN(C(=O)Cc1ccc(Cl)c(Cl)c1)[C@H]1CC[C@@]2(CCCO2)C[C@@H]1N1CCCC1 | inactive: 0.529% |
| O=[N+]([O-])c1ccc2c(c1)nnn2O | inactive: -1.02% |
| CN(C)C(=O)c1cc([N+](=O)[O-])cc2c1-c1c(cc([N+](=O)[O-])cc1[N+](=O)[O-])C2=O | inactive: -2.06% |
| CN(C(=O)Cc1ccccc1)[C@@H]1CC[C@]2(CCCO2)C[C@H]1N1CCCC1 | inactive: -0.526% |
| CCOP1(=S)c2c(C)nn(CCC#N)c2N=C(c2ccc(F)cc2)N1C (stereo unspecified) | inactive: 3.1% |
| N#CCCN(C(=O)COC(=O)C(O)(c1ccccc1)c1ccccc1)c1ccc(F)cc1 | inactive: 8.15% |
| CS(=O)(=O)c1ccc(Cl)c(NC(=O)COC(=O)C(O)(c2ccccc2)c2ccccc2)c1 | inactive: -7.57% |
| O=[As](O)(O)c1cccnc1 | inactive: -3.35% |
| COc1cc(C(=O)NCC2(N3CCOCC3)CCCCC2)cc(Cl)c1OC(C)C | inactive: 2.77% |
| O=C(OC1CN2CCC1CC2)c1ccc(Cl)cc1 (stereo unspecified) | inactive: 0.0308% |
| Cc1cccc(OCC(=O)OC2CN3CCC2CC3)c1 (stereo unspecified) | inactive: 1.86% |
| O=[As](O)(c1cccc(O)c1)c1cccc(O)c1 | inactive: -2.1% |
| CCCOP(=S)(Nc1nc(N)cc(=O)[nH]1)OCCC | inactive: 0.725% |
| Cc1ccc(NCCc2c([N+](=O)[O-])cc([N+](=O)[O-])cc2[N+](=O)[O-])cc1 | inactive: 0.0272% |
| CCOP(=O)(Nc1cccc2ccccc12)OCC | inactive: 2.36% |
| COc1cc(C2NCCC3(OCCO3)C2(C)C)cc(OC)c1OC (stereo unspecified) | inactive: 2.09% |
| CCOP(=O)(Nc1ccc(C)cn1)OCC | inactive: 0.499% |
| CN(CCCl)Cc1cc(Cl)c(NC2=NCCN2)c(Cl)c1 | inactive: -5.82% |
| CCOP(=O)(NC(=NC(C)c1ccccc1)NC(C)c1ccccc1)OCC (stereo unspecified) | inactive: -0.978% |

| SMILES | activity change, negative = inhibition |
| --- | --- |
| CCC1=CC2Cc3nc4ccc(Cl)cc4c(N)c3C(C1)C2 (stereo unspecified) | inactive: -4.83% |
| O=P1(Nc2ccccn2)COc2ccccc2OC1 | inactive: -2.5% |
| CC(C)(C)C(=O)NC(Sc1ncccn1)C(Cl)(Cl)Cl (stereo unspecified) | inactive: -1.78% |
| Clc1n[nH]nc1-c1nn[nH][15n]1 | inactive: 6.35% |
| CC1(CBr)Cn2c(nc3ccccc3c2=O)S1 (stereo unspecified) | inactive: -3.76% |
| CN(C(=O)Cc1ccc(Cl)c(Cl)c1)[C@@H]1CCCC[C@H]1N1CCCC1 | inactive: 2.86% |
| CC(C)/C=N\N=C(\N)N[N+](=O)[O-] | inactive: -5.57% |
| Cc1ccc(C(=O)OC2CN3CCC2CC3)cc1 (stereo unspecified) | inactive: 1.62% |
| CC1CCC(C(C)C)C(OP(=O)(Nc2ccccn2)c2ccccc2)C1 (stereo unspecified) | inactive: -4.94% |
| Cc1nn(-c2ccccc2)c2c1P(=O)(N1CCOCC1)N(C)C(c1ccccc1)=N2 (stereo unspecified) | inactive: -1.18% |
| CCCC1OP(=O)(Nc2ccccc2)OCC1CC (stereo unspecified) | inactive: 8.21% |
| O=C(/C=C/c1ccccc1)OC1CN2CCC1CC2 (stereo unspecified) | inactive: 3.34% |
| CN(C)C1(CNC(=O)c2ccc(S(C)(=O)=O)cc2)CCCCC1 | inactive: -1.32% |
| O=P1(Nc2ncccn2)COc2ccccc2OC1 | inactive: 1.35% |
| Cc1ccc(OCC(=O)OC2CN3CCC2CC3)cc1 (stereo unspecified) | inactive: 2.4% |
| O=[As](O)(c1cccs1)c1cccs1 | inactive: 2.27% |
| NS(=O)(=O)c1cccc(NC(=O)COC(=O)C(O)(c2ccccc2)c2ccccc2)c1 | inactive: -1.82% |
| O=P1(Nc2ccc(Br)cn2)COc2ccccc2OC1 | inactive: -1.42% |
| Nc1cccc([As](=O)(O)c2ccccc2)c1 | inactive: -1.96% |
| CC1CCNP(=O)(N(CCCl)CCCl)O1 (stereo unspecified) | inactive: -1.82% |
| Cc1cc(SC(NC(=O)c2ccccc2)C(Cl)(Cl)Cl)nc(C(C)C)n1 (stereo unspecified) | inactive: 1.36% |
| CCCCOc1ccc(C(=O)NCC2(N3CCCCC3)CCCCC2)cc1OC | inactive: -0.277% |
| CCOC(=O)Nc1cccc([As](=O)(O)O)c1 | inactive: -1.3% |
| O=[N+]([O-])c1ccc(Nc2ccc(Oc3ccc([N+](=O)[O-])cc3[N+](=O)[O-])cc2)c([N+](=O)[O-])c1 | inactive: -1.8% |
| Cc1cc(SC(NC=O)C(Cl)(Cl)Cl)ncn1 (stereo unspecified) | inactive: 1.44% |
| O=P(Nc1ccccn1)(c1cccc2ccccc12)c1cccc2ccccc12 | inactive: -1.09% |

| SMILES | activity change, negative = inhibition |
| --- | --- |
| COP1(=S)c2c(C)nn(CCC#N)c2N=C(c2ccc(F)cc2)N1C (stereo unspecified) | inactive: 2.22% |
| O=C(Nc1ccncc1[N+](=O)[O-])c1ccc([N+](=O)[O-])cc1[N+](=O)[O-] | inactive: 3.18% |
| O=C(COc1ccccc1)OC1CN2CCC1CC2 (stereo unspecified) | inactive: 6.34% |
| CCOC(=O)c1ccc(NC(=O)C(C)(CCl)SC)cc1 (stereo unspecified) | inactive: 2.98% |
| O=C(OC1CN2CCC1CC2)c1cccc([N+](=O)[O-])c1 (stereo unspecified) | inactive: 3.02% |
| CCC(C)N(CC(C)C)C(=S)SC(NC(C)=O)C(Cl)(Cl)Cl (stereo unspecified) | inactive: -1.23% |
| Cc1cc(=O)[nH]c(N[N+](=O)[O-])n1 | inactive: 3.55% |
| O=C(OC1CN2CCC1CC2)C12CC3CC(CC(C3)C1)C2 (stereo unspecified) | inactive: 1.66% |
| Cc1c2c(nc3ccccc13)SC(C(Cl)Cl)C2 (stereo unspecified) | inactive: -1.95% |
| COc1cc(I)ccc1[As](=O)(O)O | inactive: -7.49% |
| COc1ccc2nc(NP(=O)(c3ccccc3)c3ccccc3)sc2c1 | inactive: -2.07% |
| O=P1(N(CCCl)CCCl)OCCCN1CCCl (stereo unspecified) | inactive: 5.16% |
| O=P1(N(CCCl)CCCl)Nc2ccccc2N1 | inactive: 3.28% |
| COc1ccc(N/C(=N/P(=O)(N2CCOCC2)N2CCOCC2)N2CCOCC2)cc1 | inactive: -2.05% |
| O=[N+]([O-])c1cc(Oc2ccc([N+](=O)[O-])cc2C(F)(F)F)cc([N+](=O)[O-])c1 | inactive: -12.6% |
| O=[N+]([O-])c1ccc(-c2cc([N+](=O)[O-])c(O)c([N+](=O)[O-])c2)cc1 | inactive: 6.25% |
| COc1cc(C(=O)NCC2(N3CCOCC3)CCCCC2)ccc1OCC(C)C | inactive: -1.6% |
| C[As](=O)(O)c1cccc(C(=O)O)c1 | inactive: 30.5% |
| O=[As](O)(c1ccc(O)cc1)c1ccccc1O | inactive: 0.969% |
| Cc1ccc2nc3c(c(C)c2c1)CC(C(Cl)Cl)S3 (stereo unspecified) | inactive: -3.88% |
| Cc1ccc(OP(=O)(Nc2ccc([N+](=O)[O-])cn2)Oc2ccc(C)cc2)cc1 | inactive: -3.56% |
| COC(=O)C1(C)COP(=O)(N2CCCCCC2)OC1 (stereo unspecified) | inactive: 0.909% |
| CC(C)c1ccc(OP(=O)(Nc2ccccn2)Oc2ccccc2F)cc1 (stereo unspecified) | inactive: -0.909% |
| ClCCSc1nnc(-c2cccnc2)o1 | inactive: 2.77% |
| O=[N+]([O-])c1cc([N+](=O)[O-])c(-c2ccn[nH]2)s1 | inactive: -7.07% |
| CC(C)NC(=O)NP(=O)(Oc1ccccc1)Oc1ccccc1 | inactive: 0.395% |

| SMILES | activity change, negative = inhibition |
| --- | --- |
| CCN(CC)C(=S)SC(NC=O)C(Cl)(Cl)Cl (stereo unspecified) | inactive: -0.186% |
| O=C(OC1CN2CCC1CC2)c1cccc2[nH]cnc12 (stereo unspecified) | inactive: 1.66% |
| CCCC1OP(N)(=O)OCC1CC (stereo unspecified) | inactive: 0.995% |
| CC(=O)Nc1ccc([As](=O)(O)O)cc1 | inactive: -3.28% |
| O=C(O)c1ccccc1[As](=O)(O)O | inactive: -97% |
| O=P(Nc1nc2ccc(Cl)cc2s1)(c1ccccc1)c1ccccc1 | inactive: -2.39% |
| CN(C(=O)Cc1ccc(Cl)c(Cl)c1)[C@H]1CCCC[C@@H]1N1CCCC1 | inactive: -0.0262% |
| Cc1ccc(NP(=O)(Oc2ccccc2F)Oc2ccccc2F)nc1 | inactive: 4.67% |
| Cc1cc(SC(NC(=O)c2ccc(F)cc2)C(Cl)(Cl)Cl)ncn1 (stereo unspecified) | inactive: 0.0814% |
| CCOP(=O)(Nc1ccccc1)OCC | inactive: -2.04% |
| CCN(N=Nc1nonc1N)c1nonc1N | inactive: -6.15% |
| Nc1cccc2ccc([As](=O)(O)O)cc12 | inactive: 11.9% |
| NC(=O)c1cc([N+](=O)[O-])cc([N+](=O)[O-])c1N | inactive: -0.14% |
| Cc1ccc(N/C(=N/P(=O)(N2CCOCC2)N2CCOCC2)N2CCOCC2)cc1 | inactive: -1.91% |
| CN(C(=O)Cc1ccc(Cl)c(Cl)c1)[C@H]1CCCC[C@H]1N1CCCC1 | inactive: -4.17% |
| Cc1ccc(OP(=O)(Nc2nccs2)Oc2ccc(C)cc2)cc1 | inactive: -2.52% |
| COc1ccccc1OP(=O)(Nc1ccc(C)cn1)Oc1ccccc1OC | inactive: 11.2% |
| CN1CCCC(OC(=O)C(c2ccccc2)c2ccccc2)C1 (stereo unspecified) | inactive: -2.1% |
| Clc1ccc(Cl)c(NC2=NCC(CBr)S2)c1 (stereo unspecified) | inactive: 0.39% |
| Nc1cc(N)c2nonc2c1[N+](=O)[O-] | inactive: -3.09% |
| CC(C)CC(=O)NC(Sc1ccc(Cl)cc1)C(Cl)(Cl)Cl (stereo unspecified) | inactive: -1.42% |
| O=C(NC(Sc1ccncn1)C(Cl)(Cl)Cl)c1ccccc1 (stereo unspecified) | inactive: 6.01% |
| Oc1ccccc1CNc1ccccn1 | inactive: 4.17% |
